Data published in patent US20260200951A1, “NOVEL BORATE COMPOUND SOLUBLE IN ALIPHATIC HYDROCARBON SOLVENT” (AGC INC., priority 2023, published 2026).

Assay: Evaluation of solubility (visual appearance of stored solutions in aliphatic hydrocarbon solvents)
Format: physicochemical
Details: for solubility room temperature, 3 days: stored at room temperature for 3 days; for solubility room temperature, 3 days / solubility −15° C., 3 days: visual observation; for solubility −15° C., 3 days: stored at −15° C. for 3 days
Protocol: Methylcyclohexane solutions containing 50% by weight of each of the compounds obtained in Examples 1 and 2 and Comparative Examples 1 to 5, and n-hexane solutions containing 0.6% by weight (≈3 mM) of each of the aforementioned compounds were prepared and stored at room temperature or −15° C. for 3 days, and the appearance of each solution was confirmed by visual observation. The symbols used to evaluate solubility in the Tables mean the following: • ◯: homogeneous transparent solution state • Δ: cloudy state • x: two-phase separation or crystallization

[1] = 0.6 wt % (≈3 mM) borate compound/n-hexane solution
[2] = 50 wt % borate compound/methylcyclohexane solution

Substance	solubility room temperature, 3 days [1]	solubility −15° C., 3 days [1]	solubility room temperature, 3 days [2]	solubility −15° C., 3 days [2]	solubility in aliphatic hydrocarbon solvents at low temperatures, in words (compared to Comparative Examples 1 to 5, summary of Tables 1 and 2)
N, N-Dihexadecyl-4-butylanilinium tetrakis(pentafluorophenyl)borate [Example 1]	∘	∘	∘	∘*	remarkably high solubility
N,N-Didodecyl-4-butylanilinium tetrakis(pentafluorophenyl)borate [Comparative Example 4]	∘	x (two-phase separation or crystallization)	∘	∘	–
N,N-Ditetradecyl-4-butylanilinium tetrakis(pentafluorophenyl)borate [Comparative Example 5]	∘	x (two-phase separation or crystallization)	∘	∘	–
